# Assay results: article PMC3062473 (ChemMedChem, 2010)
# Target: T1, Caspase 3 (Homo sapiens, UniProt P42574)
# T1 sequence (P42574 29-175 limits assumed): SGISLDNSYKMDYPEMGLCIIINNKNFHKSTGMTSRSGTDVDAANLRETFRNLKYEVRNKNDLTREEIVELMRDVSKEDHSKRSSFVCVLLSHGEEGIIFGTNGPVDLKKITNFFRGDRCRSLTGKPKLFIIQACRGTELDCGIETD
# T1 sequence (P42574 176-277 limits assumed): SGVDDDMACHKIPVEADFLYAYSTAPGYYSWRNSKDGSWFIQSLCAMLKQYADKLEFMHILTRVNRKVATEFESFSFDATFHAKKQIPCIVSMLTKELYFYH
# Assay: Reaction Biology caspase panel
# Format: biochemical
compound,measurement,value
"CC(=O)N[C@@H](CC(=O)O)C(=O)N[C@@H](CCC(=O)O)C(=O)N[C@H](C(=O)N[C@H](C=O)CC(=O)O)C(C)C [Ac-DEVD-CHO, reference compound]",IC50,3.04 nM
